Among the data in US10716753B2, “Compositions for pulmonary delivery of long-acting muscarinic antagonists or long-acting B2 adrenergic receptor agonists and associated methods and systems” (priority 2009, dated 2020) are MMAD and FPF values, retold here.

The series in a line: Aerosol performance by Next Generation Impactor, USP <601> (fine particle fraction, MMAD). It is filed as physicochemical. The settings on record: 24 μg per actuation.

As to `C[N+]1(C)CCC(OC(=O)C(O)(c2ccccc2)C2CCCC2)C1.[Br-]` (stereo not drawn) [glycopyrrolate, Pyrrolidinium, 3-((cyclopentylhydroxyphenylacetyl)oxy)-1,1-dimethyl-, bromide], the MMAD by setting is: (6 weeks at 50° C.) 3.94 μm; (12 weeks at 40° C.) 3.84 μm; (initial) 3.54 μm. The FPF is 58.4% (6 weeks at 50° C. ambient humidity); 56.8% (8 weeks at 40° C. and 75% relative humidity); 57.6% (12 weeks at 40° C. and 75% relative humidity).
